Measurements published in ChEMBL document CHEMBL1122495, “Ultra-short-acting beta-adrenergic receptor blocking agents. 3. Ethylenediamine derivatives of (aryloxy)propanolamines having esters on the aryl function” (J Med Chem, 1983).

Species: Cavia porcellus
Test: Negative log concentration effecting 50% blockade of isoproterenol-induced rate responses in vitro in guinea pig right atria.
Assay type: functional
Settings: read-out: pA2 (converted)

Q: `COC(=O)c1ccccc1OCC(O)CNCCc1ccc(OC)c(OC)c1` (stereo unspecified) was tested. Which Kb did it give?
A: 5.01 nM
